Drawing on US20260022143A1, “Cyclic Peptide Inhibitors of IL-23” (JANSSEN PHARMACEUTICA NV, priority 2022, published 2026), this text covers IC50 for 14 molecules.

SMILES strings stand for the structures. pIC50: −log10 of the molar value.

The test addresses T1, IL-23R (Homo sapiens, UniProt Q5VWK5).
T1 construct: host or cells: HEK293
T1 sequence (Q5VWK5 24-629): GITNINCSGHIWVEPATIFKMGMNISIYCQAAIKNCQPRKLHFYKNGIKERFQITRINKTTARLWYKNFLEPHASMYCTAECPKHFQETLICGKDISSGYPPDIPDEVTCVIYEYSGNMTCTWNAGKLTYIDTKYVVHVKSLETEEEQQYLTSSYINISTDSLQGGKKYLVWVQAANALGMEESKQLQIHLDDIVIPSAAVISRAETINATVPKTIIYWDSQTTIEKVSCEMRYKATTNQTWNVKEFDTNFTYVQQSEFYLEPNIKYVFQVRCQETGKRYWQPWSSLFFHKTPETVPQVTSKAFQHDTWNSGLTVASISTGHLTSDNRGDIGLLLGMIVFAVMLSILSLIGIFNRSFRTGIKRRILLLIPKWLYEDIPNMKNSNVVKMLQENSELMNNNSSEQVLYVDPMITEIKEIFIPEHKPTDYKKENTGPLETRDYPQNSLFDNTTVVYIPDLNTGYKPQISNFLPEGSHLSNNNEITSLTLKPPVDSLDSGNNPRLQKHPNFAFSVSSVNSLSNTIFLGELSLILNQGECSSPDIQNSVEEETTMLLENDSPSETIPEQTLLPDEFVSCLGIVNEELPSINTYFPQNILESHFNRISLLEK
In words: IL23R Reporter Assay. The note with it: HEK293 cells containing IL-23R, IL-12RP1 and STAT-inducible firefly luciferase reporter; 10 ng/mL IL-23 (EC90); 5 h at 37° C.; read-out: IL23R Reporter Assay. In kind it is cell-based. Background: In a reporter assay the amount or activity of a reporter protein is the signal.
As to `CC(=O)NCCCC[C@@H]1NC(=O)[C@H](Cc2c[nH]c3c(C)cccc23)NC(=O)[C@H]([C@@H](C)O)NC(=O)[C@H](CC(N)=O)NC(=O)[C@@H](NC(=O)CCOCCOCC[N+](C)(C)C)C(C)(C)SSC(C)(C)[C@@H](C(=O)N[C@@H](Cc2ccc(OCCNC(=N)N)cc2)C(=O)N[C@@H](Cc2ccc3ccccc3c2)C(=O)NC2(C(=O)N[C@@H](CCC(=O)O)C(=O)N[C@@H](CC(N)=O)C(=O)N[C@@H](Cc3cncc(C)c3)C(=O)N(C)CC(N)=O)CCOCC2)NC1=O` [compound 514, cPEG3aCO-Pen(3)-N-T-7MeW-K(Ac)-Pen(3)-AEF(G)-2Nal-THP-E-N-5MePyridinAla-Sar-CONH2], the pIC50 is 8.33.

Regarding `CC(=O)NCCCC[C@@H]1NC(=O)[C@H](Cc2c[nH]c3c(C)cccc23)NC(=O)[C@H]([C@@H](C)O)NC(=O)[C@H](CC(N)=O)NC(=O)[C@@H](NC(C)=O)C(C)(C)SSC(C)(C)[C@@H](C(=O)N[C@@H](Cc2ccc(-n3cc(CCC[N+]4(C)CCOCC4)nn3)cc2)C(=O)N[C@@H](Cc2ccc3ccccc3c2)C(=O)NC2(C(=O)N[C@@H](CCC(=O)O)C(=O)N[C@@H](CC(N)=O)C(=O)N[C@@H](Cc3cccnc3)C(=O)N(C)CC(N)=O)CCOCC2)NC1=O` [compound 453], the pIC50 is 8.64.

For the molecule `CC(=O)NCCCC[C@@H]1NC(=O)[C@H](Cc2c[nH]c3c(C)cccc23)NC(=O)[C@H]([C@@H](C)O)NC(=O)[C@H](CC(=O)N(C)C)NC(=O)[C@@H](NC(C)=O)C(C)(C)SSC(C)(C)[C@@H](C(=O)N[C@@H](Cc2ccc(OCCN)cc2)C(=O)N[C@@H](Cc2ccc3ccccc3c2)C(=O)NC2(C(=O)N[C@@H](CCCCNC(C)=O)C(=O)N[C@@H](CC(N)=O)C(=O)N[C@@H](Cc3cccnc3)C(=O)N(C)CC(N)=O)CCOCC2)NC1=O` [compound 279, MeCO-Pen(3)-N(N(Me)2)-T-7MeW-K(Ac)-Pen(3)-AEF-2Nal-THP-K(Ac)-N-3Pya-Sar-CONH2], the pIC50 is 8.64.

As for `CC(=O)N(C)CCCC[C@@H]1NC(=O)[C@H](Cc2c[nH]c3c(C)cccc23)NC(=O)[C@H](CC(C)C)NC(=O)[C@H](CC(=O)N(C)C)NC(=O)[C@@H](NC(=O)CCOCCOCC[N+](C)(C)C)C(C)(C)SSC(C)(C)[C@@H](C(=O)N[C@@H](Cc2ccc(OCCCCC[N+](C)(C)C)cc2)C(=O)N[C@@H](Cc2ccc3ccccc3c2)C(=O)NC2(C(=O)N[C@@H](CCCCN(C)C(C)=O)C(=O)N[C@@H](CC(N)=O)C(=O)N[C@@H](Cc3cccnc3)C(=O)N(C)CC(=O)N(C)C)CCOCC2)NC1=O` [compound 493, cPEG3aCO-Pen(3)-N(N(Me)2)-L-7MeW-K(NMeAc)-Pen(3)-TMAPF-2Nal-THP-K(NMeAc)-N-3Pya-Sar-CON(Me)2], the pIC50 is 7.77.

Turning to `CC(=O)NCCCC[C@@H]1NC(=O)[C@H](Cc2c[nH]c3c(C)cccc23)NC(=O)[C@H]([C@@H](C)O)NC(=O)[C@H](CC(N)=O)NC(=O)[C@@H](NC(C)=O)C(C)(C)SSC(C)(C)[C@@H](C(=O)N[C@@H](Cc2ccc(-n3cc(C[N+](C)(C)C)nn3)cc2)C(=O)N[C@@H](Cc2ccc3ccccc3c2)C(=O)NC2(C(=O)N[C@@H](CCC(=O)O)C(=O)N[C@@H](CC(N)=O)C(=O)N[C@@H](Cc3cccnc3)C(=O)N(C)CC(N)=O)CCOCC2)NC1=O` [compound 441], the pIC50 is 8.57.

On to `CC(=O)N(C)CCCC[C@@H]1NC(=O)[C@H](Cc2c[nH]c3c(C)cccc23)NC(=O)[C@H]([C@@H](C)O)NC(=O)[C@H](CC(=O)N(C)C)NC(=O)[C@@H](NC(=O)CCOCCOCC[N+](C)(C)C)C(C)(C)SSC(C)(C)[C@@H](C(=O)N[C@@H](Cc2ccc(OCCCCCCCC[N+](C)(C)C)cc2)C(=O)N[C@@H](Cc2ccc3ccccc3c2)C(=O)NC2(C(=O)N[C@@H](CCCCN(C)C(C)=O)C(=O)N[C@@H](CC(N)=O)C(=O)N[C@@H](Cc3cccnc3)C(=O)N(C)CC(=O)N(C)C)CCOCC2)NC1=O` [compound 295, cPEG3aCO-Pen(3)-N(N(Me)2)-T-7MeW-K(NMeAc)-Pen(3)-TMA8F-2Nal-THP-K(NMeAc)-N-3Pya-Sar-CON(Me)2], for which the pIC50 is 8.62.

For `COCCOCCOCC[N+](C)(C)CCc1cn(CCOc2ccc(C[C@H](NC(=O)[C@H]3NC(=O)[C@H](CCCCN(C)C(C)=O)NC(=O)[C@H](Cc4c[nH]c5c(C)cccc45)NC(=O)[C@H]([C@@H](C)O)NC(=O)[C@H](CC(=O)N(C)C)NC(=O)[C@@H](NC(=O)CCOCCOCC[N+](C)(C)C)C(C)(C)SSC3(C)C)C(=O)N[C@@H](Cc3ccc4ccccc4c3)C(=O)NC3(C(=O)N[C@@H](CCCCN(C)C(C)=O)C(=O)N[C@@H](CC(N)=O)C(=O)N[C@@H](Cc4cccnc4)C(=O)N(C)CC(=O)N(C)C)CCOCC3)cc2)nn1` [compound 283, cPEG3aCO-Pen(3)-N(N(Me)2)-T-7MeW-K(NMeAc)-Pen(3)-Y(OTzlChmPEG3)-2Nal-THP-K(NMeAc)-N-3Pya-Sar-CON(Me)2], the pIC50 is 8.44.

As to `CNCCOc1ccc(C[C@H](NC(=O)[C@H]2NC(=O)[C@H](CCCCN(C)C(C)=O)NC(=O)[C@H](Cc3c[nH]c4c(C)cccc34)NC(=O)[C@H]([C@@H](C)O)NC(=O)[C@H](CC(=O)NC)NC(=O)[C@@H](NC(C)=O)C(C)(C)SSC2(C)C)C(=O)N[C@@H](Cc2ccc3ccccc3c2)C(=O)NC2(C(=O)N[C@@H](CCCCN(C)C(C)=O)C(=O)N[C@@H](CC(N)=O)C(=O)N[C@@H](Cc3cccnc3)C(=O)N(C)CC(=O)NC)CCOCC2)cc1` [SEQ ID 67], the pIC50 is 8.64.

For the molecule `CC(=O)N(C)CCCC[C@@H]1NC(=O)[C@H](Cc2c[nH]c3c(C(F)(F)F)cccc23)NC(=O)[C@H]([C@@H](C)O)NC(=O)[C@H](CC(=O)N(C)C)NC(=O)[C@@H](NC(=O)C(F)(F)F)C(C)(C)SSC(C)(C)[C@@H](C(=O)N[C@@H](Cc2ccc(OCCN(C)C)cc2)C(=O)N[C@@H](Cc2ccc3ccccc3c2)C(=O)NC2(C(=O)N[C@@H](CCCCN(C)C(C)=O)C(=O)N[C@@H](CC(N)=O)C(=O)N[C@@H](Cc3cccnc3)C(=O)N(C)CC(=O)N(C)C)CCOCC2)NC1=O` [compound 95, CF3CO-Pen(3)-N(N(Me)2)-T-7CF3W-K(NMeAc)-Pen(3)-AEF(N(Me)2)-2Nal-THP-K(NMeAc)-N-3Pya-Sar-CON(Me)2], the pIC50 was 8.32.

With `CC(=O)N(C)CCCC[C@@H]1NC(=O)[C@H](Cc2c[nH]c3c(C)cccc23)NC(=O)[C@H]([C@@H](C)O)NC(=O)[C@H](CC(=O)N(C)C)NC(=O)[C@@H](NC(=O)CCOCCOCC[N+](C)(C)C)C(C)(C)SSC(C)(C)[C@@H](C(=O)N[C@@H](Cc2ccc(OCCCCC[N+](C)(C)C)cc2)C(=O)N[C@@H](Cc2ccc3ccccc3c2)C(=O)NC2(C(=O)N[C@@H](CCCCN(C)C(C)=O)C(=O)N[C@@H](CC(N)=O)C(=O)N[C@@H](Cc3cccnc3)C(=O)N(C)CC(=O)N(C)C)CCOCC2)NC1=O` [compound 164, cPEG3aCO-Pen(3)-N(N(Me)2)-T-7MeW-K(NMeAc)-Pen(3)-TMAPF-2Nal-THP-K(NMeAc)-N-3Pya-Sar-CON(Me)2], the pIC50 is 8.62.

Take `CC(=O)N(C)CCCC[C@H](NC(=O)C1(NC(=O)[C@H](Cc2ccc3ccccc3c2)NC(=O)[C@H](Cc2ccc(OCCCCC[N+](C)(C)C)cc2)NC(=O)[C@H]2NC(=O)[C@H](CCCC[N+](C)(C)C)NC(=O)[C@H](Cc3c[nH]c4c(C)cccc34)NC(=O)[C@H]([C@@H](C)O)NC(=O)[C@H](CC(=O)N(C)C)NC(=O)[C@@H](NC(=O)CCOCCOCC[N+](C)(C)C)C(C)(C)SSC2(C)C)CCOCC1)C(=O)N[C@@H](CC(N)=O)C(=O)N[C@@H](Cc1cccnc1)C(=O)N(C)CC(=O)N(C)C` [compound 329, cPEG3aCO-Pen(3)-N(N(Me)2)-T-7MeW-K(Me)3-Pen(3)-TMAPF-2Nal-THP-K(NMeAc)-N-3Pya-Sar-CON(Me)2]: the pIC50 was 8.72.

As to `CC(=O)N(C)CCCC[C@@H]1NC(=O)[C@H](Cc2c[nH]c3c(C)cccc23)NC(=O)[C@H]([C@@H](C)O)NC(=O)[C@H](CC(=O)N(C)C)NC(=O)[C@@H](NC(=O)C(F)(F)F)C(C)(C)SSC(C)(C)[C@@H](C(=O)N[C@@H](Cc2ccc(OCCN(C)C)cc2)C(=O)N[C@@H](Cc2ccc3ccccc3c2)C(=O)NC2(C(=O)N[C@@H](CCCCN(C)C(C)=O)C(=O)N[C@@H](CC(N)=O)C(=O)N[C@@H](Cc3cccnc3)C(=O)N(C)CC(=O)N(C)C)CCOCC2)NC1=O` [compound 66, CF3CO-Pen(3)-N(N(Me)2)-T-7MeW-K(NMeAc)-Pen(3)-AEF(N(Me)2)-2Nal-THP-K(NMeAc)-N-3Pya-Sar-CON(Me)2], the pIC50 is 8.55.

In the case of `CC(=O)N[C@@H]1C(=O)N[C@@H](CC(N)=O)C(=O)N[C@@H]([C@@H](C)O)C(=O)N[C@@H](Cc2c[nH]c3c(C)cccc23)C(=O)N[C@@H](CCC(=O)N(C)C)C(=O)N[C@H](C(=O)N[C@@H](Cc2ccc(OCCN)cc2)C(=O)N[C@@H](Cc2ccc3ccccc3c2)C(=O)NC2(C(=O)N[C@@H](CCC(=O)N(C)C)C(=O)N[C@@H](CC(N)=O)C(=O)N[C@@H](Cc3cccnc3)C(=O)N(C)CC(N)=O)CCOCC2)C(C)(C)SSC1(C)C` [compound 138], the pIC50 was 8.57.

Consider `CC(=O)NCCCC[C@@H]1NC(=O)[C@H](Cc2c[nH]c3c(C)cccc23)NC(=O)[C@H]([C@@H](C)O)NC(=O)[C@H](CC(N)=O)NC(=O)[C@H](NC(C)=O)CSSC[C@@](C)(C(=O)N[C@@H](Cc2ccc(OCCCCC[N+](C)(C)C)cc2)C(=O)N[C@@H](Cc2ccc3ccccc3c2)C(=O)NC2(C(=O)N[C@@H](CCCCNC(C)=O)C(=O)N[C@@H](CC(N)=O)C(=O)N[C@@H](Cc3cccnc3)C(=O)N(C)CC(N)=O)CCOCC2)NC1=O` [compound 478, MeCO-C(3)-N-T-7MeW-K(Ac)-aMeC(3)-TMAPF-2Nal-THP-K(Ac)-N-3Pya-Sar-CONH2], for which the pIC50 is 8.64.
